From article PMC8317212 (Journal of medicinal chemistry, 2016)

Amino acid sequences for entries named in this document (tags omitted).
UniProt P28223, whole entry: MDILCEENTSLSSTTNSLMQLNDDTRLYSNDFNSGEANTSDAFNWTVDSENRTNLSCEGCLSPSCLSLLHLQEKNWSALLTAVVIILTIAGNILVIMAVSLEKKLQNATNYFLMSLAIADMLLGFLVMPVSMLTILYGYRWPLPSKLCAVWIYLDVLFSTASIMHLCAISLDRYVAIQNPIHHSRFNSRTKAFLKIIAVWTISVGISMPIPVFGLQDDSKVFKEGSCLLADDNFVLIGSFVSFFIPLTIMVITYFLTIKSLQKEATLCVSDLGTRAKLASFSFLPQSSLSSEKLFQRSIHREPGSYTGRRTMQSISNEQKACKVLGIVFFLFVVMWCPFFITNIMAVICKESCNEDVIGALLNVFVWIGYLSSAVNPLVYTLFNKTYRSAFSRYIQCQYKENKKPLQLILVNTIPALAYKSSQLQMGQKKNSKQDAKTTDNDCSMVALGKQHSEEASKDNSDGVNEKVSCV

Columns and labels:
C57BL/6J mice = settings: mouse, in vivo
C57BL/6 mice = settings: mouse, in vivo
WT and NR1-KD mice = settings: mouse, in vivo
human 5-HT2A = human 5-HT2A (Homo sapiens, UniProt P28223); assay: FLIPR calcium flux assay, 5-HT2A; type: cell-based
mice = settings: mouse, in vivo

Question: With `C=CCOc1cc(F)c(F)cc1C1CC1CN.Cl` (single isomer, unassigned; (+)) [(+)-22a, (+)-[2-[2-(Allyloxy)-4,5-difluorophenyl]cyclopropyl]methanamine Hydrochloride] as the molecule, how does the “catalepsy one hour after injection” value (C57BL/6J mice) read?
Answer: The value was “catalepsy was very low”.

Question: What about the “PPI, compound alone” value (C57BL/6 mice) of the same molecule?
Answer: Its value is “similarly high levels of PPI with the Veh + Veh group”.

Question: And the “startle (pulse-only) response to 120 dB stimulus” value (C57BL/6 mice)?
Answer: Its value is “decreased startle activities”.

Question: What about the “novel object preference (NORM), NR1-KD mice” value (WT and NR1-KD mice) of the same molecule?
Answer: Its value is “significantly enhanced this preference”.

Question: What about the “novel object preference (NORM), WT mice” value (WT and NR1-KD mice) of the same molecule?
Answer: Its value is “attenuation in NORM”.

Question: What about the “total object exploration time” value (WT and NR1-KD mice) of the same molecule?
Answer: The value was “object exploration was similar between genotypes”.

Question: And the “Emax 5-HT2A” value (human 5-HT2A)?
Answer: The value was 491 (21%).

Question: What about the “baseline locomotion in open field (0–15 min)” value (mice) of the same molecule?
Answer: The value was “small, albeit significant (p < 0.040) reduction in locomotion”.
